scFv variants of Ab-14 (heavy chain) against a SARS-CoV-2 spike peptide

Source: Li et al. 2023 (doi:10.1038/s41467-023-39022-2), MIT Lincoln Laboratory and A-Alpha Bio; data file from the FLAb repository.

Target: peptide PDVDLGDISGINAS, taken from heptad repeat 2 (HR2) of SARS-CoV-2 spike.

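The starting antibody came from a phage panning campaign against this peptide. These sequences belong to a second round, designed from the earlier measurements on random variants of the parent. Group labels follow the data file (Ctrl: baseline library sampled from a position-specific scoring matrix, with some repeated check sequences; GPLM: also part of the Gaussian process libraries; Gen: genetic algorithm; a sequence that several methods proposed may carry one label only). In AlphaSeq, yeast of one mating type display the scFv and yeast of the other type display the target. Mating (16 h, 30 °C) was followed by selection of diploids and sequencing of their barcodes. A regression on co-assayed BCL2-family reference pairs converts the normalised counts of each replicate to an apparent Kd. There are six technical replicates.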

Parent scFv Ab-14: VH joined to VL by a (GGGGS)3 linker. Changes lie in the heavy chain CDRs alone.
VH: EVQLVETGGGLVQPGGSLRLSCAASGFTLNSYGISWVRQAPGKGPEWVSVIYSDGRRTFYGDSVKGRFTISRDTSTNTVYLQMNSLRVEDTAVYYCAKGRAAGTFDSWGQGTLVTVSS
VL: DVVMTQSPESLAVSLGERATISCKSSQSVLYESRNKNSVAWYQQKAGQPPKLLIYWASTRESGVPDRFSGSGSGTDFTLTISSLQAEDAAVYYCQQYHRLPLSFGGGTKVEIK

The whole VH of each variant is written out.
Numbers give log10(Kd / nM), so 0 is 1 nM and 3 is 1 µM. Smaller is tighter.
Replicates are averaged; those with no signal do not enter the mean.
"nd" marks a missing value. The strain was present, yet no cells mated with the target were sequenced in that replicate, which points to weak or no binding.
The authors' rule: three or more of the six replicates give a measured affinity, fewer mean a poor binder.
Of ten entries with the parent sequence, four were seen in most replicates (averages 0.34 to 2.37), three in one and three in none, so single entries are noisy.
Some sequences occur more than once in the pool; their replicates are listed entry by entry, parted by semicolons.
Values of this round are not directly comparable with the first-round values of the same sequences.
Empty control strains, which show no peptide, gave a signal in 1% of pairings with all heavy chain designs; the median was 2.08 and 95% of these signals were weaker than 0.84. No background was subtracted. Also given: how often the same scFv was detected with the empty control strains, with their mean in brackets.

VH | group | log10 Kd, replicates | mean, log10 nM | empty controls
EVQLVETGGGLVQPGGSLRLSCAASGFTLDSYGISWVRQAPGKGPEWVSVIYSDGRRTFYSDSVKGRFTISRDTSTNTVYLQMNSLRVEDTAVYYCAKGRTAGTFDSWGQGTLVTVSS | Ctrl+GPLM_Gen | nd 0.25 -0.25 -0.07 0.17 1.11; 0.46 0.24 0.48 0.33 0.37 0.87 | 0.36 | 0 of 36
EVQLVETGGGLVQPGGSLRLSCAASGFTLNSYGISWVRQAPGKGPEWVSVIYSDGRRTFYQDSVKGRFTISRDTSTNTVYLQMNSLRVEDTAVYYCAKGDAAGTFFTWGQGTLVTVSS | Ctrl | nd nd nd nd nd nd | nd | 0 of 18
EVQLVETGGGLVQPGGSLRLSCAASGFTLASYGISWVRQAPGKGPEWVSVIYSDGRRTFYGDSVKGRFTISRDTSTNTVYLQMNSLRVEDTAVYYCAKGRAAGTFDQWGQGTLVTVSS | Ctrl | 1.63 nd nd nd nd 2.14 | 1.89 | 0 of 18
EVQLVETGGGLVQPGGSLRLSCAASGFTLNSYGISWVRQAPGKGPEWVSVKYSDGRRTFYGDSVKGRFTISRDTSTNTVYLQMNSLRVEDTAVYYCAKGRAAITFDSWGQGTLVTVSS | Ctrl | nd nd nd nd nd nd | nd | 0 of 18
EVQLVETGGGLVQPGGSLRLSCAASGFTLNSYGISWVRQAPGKGPEWVSVIYSDYRRTFMGDSVKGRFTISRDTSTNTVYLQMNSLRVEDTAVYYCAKLRATKTFDSWGQGTLVTVSS | Ctrl | nd nd nd nd nd nd | nd | 0 of 18
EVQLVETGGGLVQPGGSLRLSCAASGFTINSYGISWVRQAPGKGPEWVSVIYSDGRRTFYQDSVKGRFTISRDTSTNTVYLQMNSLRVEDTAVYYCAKGRAAGTFDSWGQGTLVTVSS | Ctrl | nd nd nd nd nd nd | nd | 0 of 18
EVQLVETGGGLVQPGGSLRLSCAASGFALNSYGISWVRQAPGKGPEWVSVIYSDGRRTFYGDSVKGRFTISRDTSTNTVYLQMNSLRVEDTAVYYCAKGRAIGTFDSWGQGTLVTVSS | Ctrl | nd 2.84 2.17 2.89 4.27 nd | 3.04 | 1 of 18 (2.50)
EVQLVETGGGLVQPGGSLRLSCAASGFTLNSYGISWVRQAPGKGPEWVSVIYSDGRRTFYGDSVKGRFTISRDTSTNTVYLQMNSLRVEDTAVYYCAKGRAAGTFDGWGQGTLVTVSS | Ctrl | nd nd nd nd nd nd | nd | 0 of 18
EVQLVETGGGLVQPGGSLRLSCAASGFALNLYGISWVRQAPGKGPEWVSVIYSDGRRTFYSDSVKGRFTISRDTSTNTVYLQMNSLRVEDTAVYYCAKGRAAATFDSWGQGTLVTVSS | Ctrl | nd nd nd nd nd nd | nd | 2 of 18 (2.81)
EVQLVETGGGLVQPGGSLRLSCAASGFDLNEYGISWVRQAPGKGPEWVSVIYSDPRRTFYGDSVKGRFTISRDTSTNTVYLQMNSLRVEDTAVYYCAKGRAAGRFDSWGQGTLVTVSS | Ctrl | nd nd nd nd nd nd | nd | 0 of 18
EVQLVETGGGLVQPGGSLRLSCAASGFTLNSYGISWVRQAPGKGPEWVSVIYSDGRRTFYGQSVKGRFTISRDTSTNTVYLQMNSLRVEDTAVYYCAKGRAAGTFDSWGQGTLVTVSS | Ctrl | nd 1.35 nd nd nd nd | 1.35 | 0 of 18
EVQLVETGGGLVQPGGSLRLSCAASGFTLNLYGISWVRQAPGKGPEWVSVIYSDGRRTFYGDSVKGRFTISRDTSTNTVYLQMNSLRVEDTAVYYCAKGRVAGTMRSWGQGTLVTVSS | Ctrl | nd 1.31 1.74 nd nd nd | 1.53 | 0 of 18
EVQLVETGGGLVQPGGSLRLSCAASGFTLNSQGISWVRQAPGKGPEWVSVIYMDGRRTFYGDSVKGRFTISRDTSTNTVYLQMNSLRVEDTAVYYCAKGRAAGTFDSWGQGTLVTVSS | Ctrl | nd nd nd nd nd nd | nd | 0 of 18
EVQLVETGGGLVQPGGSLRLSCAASGFTLNSYGISWVRQAPGKGPEWVSVIYSDGRRTFYGDSVKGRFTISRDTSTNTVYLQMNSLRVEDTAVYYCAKGRARGTNSSWGQGTLVTVSS | Ctrl | nd nd nd nd nd nd | nd | 0 of 18
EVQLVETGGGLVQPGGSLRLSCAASGFTLNSAGISWVRQAPGKGPEWVSVIYSDGRRTFYGDSVKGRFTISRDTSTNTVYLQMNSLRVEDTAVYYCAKGWKAGTFDSWGQGTLVTVSS | Ctrl | nd nd nd nd nd nd | nd | 0 of 18
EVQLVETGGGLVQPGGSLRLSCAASGFTVNSYGISWVRQAPGKGPEWVSVIYSDGRRTFYNDSVKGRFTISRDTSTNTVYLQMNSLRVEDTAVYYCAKGRAAGTFDSWGQGTLVTVSS | Ctrl | nd nd nd nd nd nd | nd | 0 of 18
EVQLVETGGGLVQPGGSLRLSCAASGFTLESYGISWVRQAPGKGPEWVSVIYSDGRRTFYGDSVKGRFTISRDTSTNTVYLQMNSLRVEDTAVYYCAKGRAAGTFDSWGQGTLVTVSS | Ctrl+GPLM_Gen | 1.83 1.53 0.98 1.43 1.57 2.32; nd nd nd 1.09 nd nd | 1.54 | 0 of 36
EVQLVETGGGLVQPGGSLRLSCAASGFTLNSYGISWVRQAPGKGPEWVSVIYSDGRRTSYEDSVKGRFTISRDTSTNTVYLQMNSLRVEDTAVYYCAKGFAAGTFDSWGQGTLVTVSS | Ctrl | 3.26 3.27 nd 2.56 3.10 3.67 | 3.17 | 1 of 18 (3.48)
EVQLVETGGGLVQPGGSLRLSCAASGFTLNDYGISWVRQAPGKGPEWVSVIYSDGKRTFYSDSVKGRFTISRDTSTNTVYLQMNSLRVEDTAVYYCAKGRAAGTFDDWGQGTLVTVSS | Ctrl | 0.79 0.41 0.75 0.16 0.27 0.80 | 0.53 | 1 of 18 (1.97)
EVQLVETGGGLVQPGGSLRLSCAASGFTLNSYGISWVRQAPGKGPEWVSVIYSDGRRTFYDDSVKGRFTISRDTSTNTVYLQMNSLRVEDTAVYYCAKGREALTFDTWGQGTLVTVSS | Ctrl | nd nd nd nd nd nd | nd | 0 of 18
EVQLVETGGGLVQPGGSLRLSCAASGFTLNSYGISWVRQAPGKGPEWVSVIYSDGRRTFYGDSVKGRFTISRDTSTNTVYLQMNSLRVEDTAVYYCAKGKADGTFDSWGQGTLVTVSS | Ctrl | nd nd nd nd nd nd | nd | 0 of 18
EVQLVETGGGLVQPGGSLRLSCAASGFTLNSYGISWVRQAPGKGPEWVSVIYSDGRRTSYIDSVKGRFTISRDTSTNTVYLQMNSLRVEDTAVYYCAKGRAAGTADSWGQGTLVTVSS | Ctrl | nd nd nd nd nd nd | nd | 0 of 18
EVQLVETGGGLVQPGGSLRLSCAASGFTLNSYGISWVRQAPGKGPEWVSVIYSDGMRTWYADSVKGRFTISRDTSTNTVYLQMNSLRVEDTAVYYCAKGRAAGTFDSWGQGTLVTVSS | Ctrl | 1.73 1.41 1.29 0.45 1.87 1.06 | 1.30 | 1 of 18 (3.47)
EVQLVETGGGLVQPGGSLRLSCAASGFTLNSYGISWVRQAPGKGPEWVSVIYADGRRTFYGDSVKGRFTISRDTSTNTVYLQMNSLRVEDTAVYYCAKGRAAGTFDWWGQGTLVTVSS | Ctrl | nd 1.42 nd nd nd 2.09 | 1.75 | 0 of 18
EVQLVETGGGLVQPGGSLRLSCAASGFALDSYGISWVRQAPGKGPEWVSVIYSDGRRTFYSDSVKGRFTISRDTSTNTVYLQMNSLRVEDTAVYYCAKGRAAGTFDSWGQGTLVTVSS | Ctrl | 0.10 0.02 -0.20 0.36 0.13 0.20 | 0.10 | 0 of 18
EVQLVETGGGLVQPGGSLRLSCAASGFALNSYGISWVRQAPGKGPEWVSVIYSDGRRTFYGDSVKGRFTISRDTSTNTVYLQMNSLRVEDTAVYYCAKGQSAGTFDSWGQGTLVTVSS | Ctrl | nd nd nd nd nd nd | nd | 0 of 18

The 3 strongest on average among those seen in every replicate, once more:

VH	group	log10 Kd, replicates	mean, log10 nM	empty controls
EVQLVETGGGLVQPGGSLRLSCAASGFALDSYGISWVRQAPGKGPEWVSVIYSDGRRTFYSDSVKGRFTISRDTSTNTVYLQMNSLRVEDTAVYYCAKGRAAGTFDSWGQGTLVTVSS	Ctrl	0.10 0.02 -0.20 0.36 0.13 0.20	0.10	0 of 18
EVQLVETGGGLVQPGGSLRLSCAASGFTLNDYGISWVRQAPGKGPEWVSVIYSDGKRTFYSDSVKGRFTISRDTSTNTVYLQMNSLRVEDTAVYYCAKGRAAGTFDDWGQGTLVTVSS	Ctrl	0.79 0.41 0.75 0.16 0.27 0.80	0.53	1 of 18 (1.97)
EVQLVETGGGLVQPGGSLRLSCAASGFTLNSYGISWVRQAPGKGPEWVSVIYSDGMRTWYADSVKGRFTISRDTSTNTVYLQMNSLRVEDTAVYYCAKGRAAGTFDSWGQGTLVTVSS	Ctrl	1.73 1.41 1.29 0.45 1.87 1.06	1.30	1 of 18 (3.47)